Key:
[1] = tested on: human macrophages; assay: Differential (Gram-negative/TLR4-specific) macrophage gene expression after bacterial components or cytokines, HuFL GeneChips; type: cell-based; details: IFNs at 1000 units/mL
[2] = tested on: human macrophages; assay: I-TAC ELISA of macrophage supernatants; type: cell-based; details: 100 units/mL IFN

B1: IFN-β: IFN-β from Bioscience International (protein, UniProt P01574 22-187, looked up)
Interferon beta: MSYNLLGFLQRSSNFQCQKLLWQLNGRLEYCLKDRMNFDIPEEIKQLQQFQKEDAALTIYEMLQNIFAIFRQDSSSTGWNETIVENLLANVYHQINHLKTVLEEKLEKEDFTRGKLMSSLHLKRYYGRILHYLKAKEYSHCAWTIVRVEILRNFYFINRLTGYLRN
- induction of the TLR4-induced core cluster of genes by cytokines [1]: sufficient to induce the expression of the TLR4-induced core cluster of genes
- I-TAC production by macrophages in response to IFNs [2]: sufficient to induce I-TAC production
